Measured values reported in patent US20100183604A1, “PREVENTIVE/REMEDY FOR CANCER” (TAKEDA PHARMACEUTICAL COMPANY LIMITED, priority 2007, published 2010).

Key:
[1] = tested on: trastuzumab low sensitive BT-474 cells; assay: Viable cell count after HER2 inhibitor addition (no siRNA), low sensitive cell line; assay type: cell-based, human; conditions: 3 μg/mL vs without addition, 5 days
Protocol: (§1) After culture for 5 days at 37° C., 5% CO2, the number of viable cells was counted.

[2] = tested on: BT474 cells highly sensitive to trastuzumab; assay: Viable cell count after HER2 inhibitor addition (no siRNA), high sensitive cell line; assay type: cell-based, human; conditions: 3 μg/mL vs without addition, 5 days
Protocol: as §1

## trastuzumab: anti-HER2 antibody (trade mark herceptin), conventional HER2 inhibitor
[1]
  growth suppression: about 10%
[2]
  growth suppression: about 50%
